Experimental data reported in US20220313694A1, “REDUCED CALORIC INTAKE AND ANTICANCER AGENTS FOR THE TREATMENT OF CANCER” (IFOM FONDAZIONE ISTITUTO FIRC DI ONCOLOGIA MOLECOLARE, priority 2021, published 2022).

How the values were obtained:
[1] = tested on: SUM159 cells; test: In vitro sphere forming assay, SUM159 cells under CTR/STS; assay type: cell-based, human; settings: STS (0.5 g/l glucose, 1% FBS), 48 h; agent added (8-Br-cAMP 0.5 mM; glucose 1 g/l; FBS 10%, IGF-1 250 ng/ml, EGF 200 ng/ml, insulin 200 ng/ml; rapamycin 10 μM, pictilisib 10 μM, ipatasertib 20 μM)
[2] = tested on: SUM159 cells

Molecule	in vitro sphere / mammosphere formation [1]	cancer cell death ([2]; CTR conditions (1 g/L glucose; 10% FBS), drug for 24 hours)	cancer cell death ([2]; STS conditions, drugs for 24 hours (rapamycin 10 μM, pictilisib 10 μM, ipatasertib 20 μM))
Nc1ncnc2c1nc(Br)n2[C@@H]1O[C@@H]2COP(=O)(O)O[C@H]2[C@H]1O [8-Br-cAMP, 8-Bromoadenosine 3′,5′-cyclic mono-phosphate]	reversed fasting/STS-dependent spheres reduction	–	–
OC[C@H]1OC(O)[C@H](O)[C@@H](O)[C@@H]1O (stereo partly shown) [glucose]	almost entirely rescued	–	–
CS(=O)(=O)N1CCN(Cc2cc3nc(-c4cccc5[nH]ncc45)nc(N4CCOCC4)c3s2)CC1 [pictilisib]	–	seems to not have any effect under CTR conditions	the most efficacious in inducing cancer cell death under STS conditions
EGF: FBS component, epidermal growth factor, 200 ng/ml (NSDSECPLSHDGYCLHDGVCMYIEALDKYACNCVVGYIGERCQYRDLKWWELR; Epidermal growth factor; UniProt P01133 971-1023, looked up)	did not have an effect on mammospheres growth	–	–
IGF1: FBS component, insulin growth factor 1, 250 ng/ml	did not have an effect on mammospheres growth	–	–
insulin: FBS component, 200 ng/ml	did not have an effect on mammospheres growth	–	–

Where two headings read alike, the source gives them in different places.
